From patent US10596172B2 (dated 2020)

Target: EGFR-WT (Homo sapiens (Human), UniProt P00533)
Assay: Omnia assay for potency assessment against EGFR (WT)
Settings: read-out: EGFR Wild Type Inhibition

Row | Substance | IC50
1 | N-(3-(5-fluoro-2-(3-(2-(2-oxopyrrolidin-1-yl)ethoxy)phenylamino)pyrimidin-4-ylamino)phenyl)acrylamide [Compound I-164] | 10 to 100 nM
2 | N-(3-(5-fluoro-2-(3-(2-(2-oxopyrrolidin-1-yl)ethoxy)phenylamino)pyrimidin-4-yloxy)phenyl)acrylamide [Compound I-184] | < 10 nM
3 | N-(3-(5-fluoro-2-(4-(3-methylsulfonylpropoxy)phenyl)aminopyrimidin-4-ylamino)phenyl)acrylamide [Compound I-97] | 10 to 100 nM
